Test [1] is described as follows: A CellTox Green Cytotoxicity Assay to monitor cytotoxicity in HEK293 cells - 0 hour (AID 1224869). Also: nearly all actives have a fitted effect of over 50% in size. The conditions noted are these: CellTox Green fluorescence. An outline of the steps: (§1)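 Each value comes from one timepoint of a single continuous run in which HEK293 cells with CellTox Green were exposed to compound for up to 40 h at 37 C, dye fluorescence rising with cell death.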

A short description of test [2]: qHTS RealTime-Glo MT Cell Viability Assay in HepG2 cells - 40 hour (AID 1224870). Also: nearly all actives have a fitted effect of over 50% in size. The conditions noted are these: RealTime-Glo luminescence; at 76.8 µM (top of the series). Summed up:
(§2)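 HepG2 cells (600/well) mixed with RealTime-Glo MT reagent, settled 5 h at 37 C/5% CO2 before compound addition. Nonlytic NanoLuc luminescence from viable-cell prosubstrate reduction read repeatedly during 40 h treatment at 37 C.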

Test [3] can be described thus: qHTS RealTime-Glo MT Cell Viability Assay in HepG2 cells - 8 hour (AID 1224873). Also: nearly all actives have a fitted effect of over 55% in size. The conditions noted are these: RealTime-Glo luminescence. Summed up:
as §2
Background: In qHTS, concentration-response curves come from the screen itself.

A short description of test [4]: A CellTox Green Cytotoxicity Assay to monitor cytotoxicity in HEK293 cells - 24 hour (AID 1224875). Also: nearly all actives have a fitted effect of over 45% in size. The conditions noted are these: CellTox Green fluorescence, stronger effect = higher value. An outline of the steps: as §1
Test [5] can be described thus: qHTS RealTime-Glo MT Cell Viability Assay in HEK293 cells - 0 hour (AID 1224880). Also: top concentration of the series differs between compounds; nearly all actives have a fitted effect of over 45% in size. The conditions noted are these: RealTime-Glo luminescence. Summed up:
(§3)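 qHTS format; HEK293 cells with NanoLuc/prosubstrate reagent, 37 C/5% CO2 for 5 h pre-dosing; compounds 23 nL in DMSO; luminescence at each time point reflects viable cells.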

Test [6] can be described thus: A CellTox Green Cytotoxicity Assay to monitor cytotoxicity in HepG2 cells - 0 hour (AID 1224882). Also: nearly all actives have a fitted effect of over 35% in size. The conditions noted are these: CellTox Green fluorescence. Summed up:
(§4)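 Continuous culture of HepG2 cells with a membrane-impermeant DNA dye; rising fluorescence marks dead cells. Compound exposure lasted up to 40 h at 37 C, with reads every 8 h from 0 h.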

Test [7] in a line: A CellTox Green Cytotoxicity Assay to monitor cytotoxicity in HEK293 cells - 8 hour (AID 1224884). Also: nearly all actives have a fitted effect of over 35% in size. The conditions noted are these: CellTox Green fluorescence. Summed up: as §1
Test [8] in a line: qHTS RealTime-Glo MT Cell Viability Assay in HepG2 cells - 16 hour (AID 1224885). Also: nearly all actives have a fitted effect of over 50% in size. The conditions noted are these: RealTime-Glo luminescence. Summed up: (§5)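 Compound treatment began 5 h after plating HepG2 cells (600/well) with NanoLuc luciferase and prosubstrate. Plates stayed at 37 C for 40 h; luminescence was captured at six time points, 0 h through 40 h.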
Test [9] in a line: qHTS RealTime-Glo MT Cell Viability Assay in HEK293 cells - 8 hour (AID 1224887). Also: top concentration of the series differs between compounds; nearly all actives have a fitted effect of over 50% in size. The conditions noted are these: RealTime-Glo luminescence. Summed up: as §3
Test [10] is described as follows: qHTS RealTime-Glo MT Cell Viability Assay in HEK293 cells - 32 hour (AID 1224868). Also: nearly all actives have a fitted effect of over 50% in size. Also: potency is read from the fitted curve at half-maximal effect. As to activity change, negative = cytotoxic: top concentration of the series differs between compounds. The conditions noted are these: RealTime-Glo luminescence; series mostly up to 76.8 µM. An outline of the steps:
(§6)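 Quantitative high-throughput screen of the Tox21 10K library in HEK293: cells and RealTime-Glo reagents plated together, compound added at 5 h, luminescence monitored through 40 h at 37 C.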

Test [11] can be described thus: A CellTox Green Cytotoxicity Assay to monitor cytotoxicity in HEK293 cells - 40 hour (AID 1224871). Also: nearly all actives have a fitted effect of over 45% in size. The conditions noted are these: CellTox Green fluorescence; at 76.8 µM (top of the series). Summed up: as §1
The nature of test [12]: qHTS RealTime-Glo MT Cell Viability Assay in HEK293 cells - 16 hour (AID 1224872). Also: nearly all actives have a fitted effect of over 50% in size. Also: potency is read from the fitted curve at half-maximal effect. As to activity change, negative = cytotoxicity: top concentration of the series differs between compounds. The conditions noted are these: RealTime-Glo luminescence; series mostly up to 76.8 µM. Summed up: as §6
The nature of test [13]: qHTS RealTime-Glo MT Cell Viability Assay in HEK293 cells - 40 hour (AID 1224874). Also: nearly all actives have a fitted effect of over 50% in size. Also: potency is read from the fitted curve at half-maximal effect. The conditions noted are these: RealTime-Glo luminescence; max response: stronger effect = lower value. Summed up: as §3
Test [14] can be described thus: A CellTox Green Cytotoxicity Assay to monitor cytotoxicity in HepG2 cells - 16 hour (AID 1224876). Also: nearly all actives have a fitted effect of over 45% in size. The conditions noted are these: CellTox Green fluorescence; at 76.8 µM (top of the series). Summed up: as §4
Test [15] in a line: qHTS RealTime-Glo MT Cell Viability Assay in HepG2 cells - 32 hour (AID 1224877). Also: nearly all actives have a fitted effect of over 55% in size. The conditions noted are these: RealTime-Glo luminescence; at 76.8 µM (top of the series). An outline of the steps:
as §5

Test [16] in a line: A CellTox Green Cytotoxicity Assay to monitor cytotoxicity in HepG2 cells - 24 hour (AID 1224878). Also: nearly all actives have a fitted effect of over 45% in size. The conditions noted are these: CellTox Green fluorescence; at 76.8 µM (top of the series). Summed up: as §4
Test [17] is described as follows: A CellTox Green Cytotoxicity Assay to monitor cytotoxicity in HEK293 cells - 32 hour (AID 1224881). Also: nearly all actives have a fitted effect of over 40% in size. The conditions noted are these: CellTox Green fluorescence; at 76.8 µM (top of the series). An outline of the steps: as §1
Test [18] can be described thus: qHTS RealTime-Glo MT Cell Viability Assay in HEK293 cells - 24 hour (AID 1224886). Also: nearly all actives have a fitted effect of over 50% in size. Also: potency is read from the fitted curve at half-maximal effect. As to activity change, negative = cytotoxicity: top concentration of the series differs between compounds. The conditions noted are these: RealTime-Glo luminescence; series mostly up to 76.8 µM. An outline of the steps:
as §6

A short description of test [19]: A CellTox Green Cytotoxicity Assay to monitor cytotoxicity in HepG2 cells - 40 hour (AID 1224879). Also: nearly all actives have a fitted effect of over 40% in size. The conditions noted are these: CellTox Green fluorescence; at 76.8 µM (top of the series). Summed up: as §4
Test [20] is described as follows: A CellTox Green Cytotoxicity Assay to monitor cytotoxicity in HepG2 cells - 32 hour (AID 1224883). Also: nearly all actives have a fitted effect of over 50% in size. The conditions noted are these: CellTox Green fluorescence; at 76.8 µM (top of the series). An outline of the steps: as §4

The structures appear in SMILES notation. The entries are a selection whose mix differs from that of the whole data set. Records with an inconclusive call do not appear. The source made the active and inactive calls. Calls follow the shape of the dose curve; as a rule, active = well fitted curve in the direction sought with a large enough effect in the repeat runs; inconclusive = weak or mixed curves; inactive = no such curve, though single readings can be large; an effect the other way counts as inactive or inconclusive.
% is scaled to controls: 0 for no effect and ±100 for the full control effect.

For the molecule `CN(CCCl)CCCl`, the cytotoxicity in [1] (at 35.3 µM (top of the series)) was inactive: -1.8%; in test [1] (at 76.8 µM (top of the series)) it was inactive: -2.92%; in test [6] (at 35.3 µM (top of the series)), inactive: -8.82%; in [6] (at 76.8 µM (top of the series)), inactive: -0.325%. Besides, the values for the activity change, negative = cytotoxic in test [2], in test [8] (at 35.3 µM (top of the series)) and in test [8] (at 76.8 µM (top of the series)) were inactive: -25.3%, inactive: -19% and inactive: -22.9%, respectively. In addition, the viability change, negative = cytotoxic in test [3] (at 35.3 µM (top of the series)) was inactive: -3.58%; in test [3] (at 76.8 µM (top of the series)), inactive: -12.6%. Also, the activity change is inactive: 1.24% in test [4] (at 35.3 µM (top of the series)) and inactive: 0.317% in [4] (at 76.8 µM (top of the series)). Besides, the activity change, negative = cytotoxicity in [5] (at 35.3 µM (top of the series)) was inactive: 1.65%; in [5] (at 76.8 µM (top of the series)), inactive: -1.34%; in [9] (at 35.3 µM (top of the series)) it was inactive: 0.142%; in test [9] (at 76.8 µM (top of the series)), inactive: -15%. Moreover, the figures for the cytotoxicity increase in [7] (at 35.3 µM (top of the series)) and in [7] (at 76.8 µM (top of the series)) were inactive: 0.654% and inactive: -10.2%, respectively.
For the molecule `O=[N+]([O-])C(Cl)(Cl)Cl`, the Potency entry in test [10], in test [12] and in test [18] was “inactive” in each case. In addition, the cytotoxicity was inactive: 4.67% in test [1] (at 76.8 µM (top of the series)), inactive: -19.8% in test [16] and inactive: -7.63% in test [6] (at 76.8 µM (top of the series)). Also, the figures for the activity change, negative = cytotoxic in [2], in test [15] and in test [8] (at 76.8 µM (top of the series)) were inactive: 2.29%, inactive: -0.186% and inactive: 2.24%, respectively. The cytotoxicity increase was inactive: 12.8% in test [11], inactive: -16% in test [14], inactive: 15.3% in test [17] and inactive: 6.27% in test [7] (at 76.8 µM (top of the series)). Further, in test [3] (at 76.8 µM (top of the series)), the viability change, negative = cytotoxic is inactive: 2.13%. In [13], the max response was inactive: 1.56%. The activity change in [4] (at 76.8 µM (top of the series)) was inactive: 16.7%. Moreover, the activity change, negative = cytotoxicity in test [5] (at 76.8 µM (top of the series)) was inactive: -0.123%; in [9] (at 76.8 µM (top of the series)) it was inactive: 2.19%.
On to `CCC(=O)N(c1ccccc1)C1(COC)CCN(CCc2cccs2)CC1`, for which the Potency in [10] was active: 27.5 µM; in test [12], active: 43.6 µM; in test [13] it was active: 27.5 µM; in test [18], active: 48.9 µM. Also, the results for the cytotoxicity in test [1] (at 76.8 µM (top of the series)), in [16] and in [6] (at 76.8 µM (top of the series)) were inactive: 2.25%, inactive: 5.86% and inactive: -0.0236%, respectively. Besides, the activity change, negative = cytotoxic in test [2] was inactive: -9.08%; in test [15] it was inactive: -11.7%; in test [8] (at 76.8 µM (top of the series)), inactive: -4.1%. Moreover, in test [3] (at 76.8 µM (top of the series)), the viability change, negative = cytotoxic is inactive: -0.938%. Besides, in [4] (at 76.8 µM (top of the series)), the activity change was inactive: 0.564%. Moreover, the cytotoxicity increase in test [14] is inactive: -0.175%; in [19], inactive: 24.6%; in test [17], inactive: 13%; in test [20], inactive: 17.6%; in test [7] (at 76.8 µM (top of the series)), inactive: 1.76%. For the same molecule, the activity change, negative = cytotoxicity in [5] (at 76.8 µM (top of the series)) is inactive: -14.5%.
`CCC(=O)N(c1ccccc1)C1(COC)CCN(CCn2nnn(CC)c2=O)CC1`: the Potency result in test [10], in test [12] and in [18] was “inactive” throughout. Moreover, the cytotoxicity in [1] (at 76.8 µM (top of the series)) is inactive: 2.27%; in test [16], inactive: -5.16%; in [6] (at 76.8 µM (top of the series)), inactive: 0.405%. Also, the activity change, negative = cytotoxic is inactive: -2.3% in [2], inactive: 0.153% in test [15] and inactive: 3.25% in [8] (at 76.8 µM (top of the series)). For the same molecule, the cytotoxicity increase in test [11] was inactive: -11%; in test [14], inactive: 2.15%; in test [19] it was inactive: -2.08%; in [17] it was inactive: -7.08%; in test [20], inactive: -4.93%; in test [7] (at 76.8 µM (top of the series)), inactive: -2.04%. Also, the viability change, negative = cytotoxic in [3] (at 76.8 µM (top of the series)) was inactive: 6.78%. Moreover, the max response in [13] is inactive: -15%. The activity change in [4] (at 76.8 µM (top of the series)) is inactive: -3.84%. Further, the activity change, negative = cytotoxicity in test [5] (at 76.8 µM (top of the series)) was inactive: -1.67%; in test [9] (at 76.8 µM (top of the series)), inactive: -10.1%.

The values are drawn from PubChem BioAssay (Tox21).
